Experimental findings from patent publication US20250382344A1, “Soluble GLP1/GIP/NPY2 Receptor Triple Agonists” (Boehringer Ingelheim International GmH, priority 2024, published 2025) are described below.

Sequences of proteins named here, by UniProt entry; tags and fusion partners are left off. Residues count along the entry.
UniProt P49146, whole entry: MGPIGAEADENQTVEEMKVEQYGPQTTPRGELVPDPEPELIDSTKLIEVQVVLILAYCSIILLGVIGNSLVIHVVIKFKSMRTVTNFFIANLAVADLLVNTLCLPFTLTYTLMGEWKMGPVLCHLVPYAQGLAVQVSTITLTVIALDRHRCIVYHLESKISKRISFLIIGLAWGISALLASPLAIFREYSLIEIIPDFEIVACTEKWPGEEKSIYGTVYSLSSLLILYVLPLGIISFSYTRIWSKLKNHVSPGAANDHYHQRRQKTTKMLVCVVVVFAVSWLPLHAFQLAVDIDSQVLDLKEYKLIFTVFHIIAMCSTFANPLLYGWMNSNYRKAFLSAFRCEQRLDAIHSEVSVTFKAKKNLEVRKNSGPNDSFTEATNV
UniProt P43220, 24-463: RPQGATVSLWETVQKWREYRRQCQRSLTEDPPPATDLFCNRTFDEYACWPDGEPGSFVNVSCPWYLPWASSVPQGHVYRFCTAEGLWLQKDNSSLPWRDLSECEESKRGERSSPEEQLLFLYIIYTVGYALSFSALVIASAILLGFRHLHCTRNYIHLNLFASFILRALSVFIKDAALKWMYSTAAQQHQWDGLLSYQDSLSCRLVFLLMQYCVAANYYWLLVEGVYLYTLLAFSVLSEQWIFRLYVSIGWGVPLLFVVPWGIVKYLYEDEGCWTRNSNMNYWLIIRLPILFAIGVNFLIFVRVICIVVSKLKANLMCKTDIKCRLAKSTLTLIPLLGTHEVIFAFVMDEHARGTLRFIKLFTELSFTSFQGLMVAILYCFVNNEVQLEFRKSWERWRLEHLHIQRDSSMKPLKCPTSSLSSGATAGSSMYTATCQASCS

In experiment [1] the target is T1, hNPY2R (Homo sapiens, UniProt P49146).
T1 construct: expressed in transfected cells; host or cells: HEK-293 CRE-luciferase reporter cells
In words: hNPY2R CreLuc assay in 0.5% and 100% plasma (HEK-293 CRE-luciferase reporter cells). The settings on record: HEK-293 reporter cells. It counts as cell-based. The text has this:
(§1) CHO and HEK-293 recombinant cell lines express a luciferase reporter gene under control of the CAMP responsive element (CRE). As a second recombinant protein the GLP-1 and NPY2 receptors were expressed in the reporter gene HEK cells, and the GIP receptor was expressed in the reporter gene CHO cells, respectively. Stimulation of these recombinant cells with an agonist leads to an increase of intracellular CAMP levels. In the presence of CAMP, the transcription factor CRE binding protein (CREB) binds to the CRE and to the CREB binding protein (CBP), which leads to transcription of the luciferase reporter gene. Peptides upon serial-dilution in 100% DMSO were transferred into 384-well assay plates with 5 μl pre-dispensed assay buffer (1×HBSS, 20 mM HEPES, pH7.4 supplemented with 0.5% human plasma) using acoustic dispensing on a Labcyte ECHO. Cryo-preserved transgenic reporter gene cells were thawed in assay buffer. 20 μl (10.000 cells/well) were added to the plate with the peptides and incubated for 4 hours at 37° C. in a humidified incubator. Following incubation, assay plates are equilibrated to room temperature, followed by addition of 25 μl of Bright-Glo™ Luciferase reagent, incubation at room temperature for 10 minutes and analysis of luminescence (Envision Reader). […] EC50 values were calculated by non-linear regression using sigmoid concentration-response with variable slope.
(§2) The same assays were run in the presence of 100% plasma with no additional buffer constituents.
For orientation: In a reporter assay the amount or activity of a reporter protein is the signal.

The target of experiment [2] is T2, hGLP1R (Homo sapiens, UniProt P43220).
T2 construct: expressed in transfected cells; host or cells: HEK-293 CRE-luciferase reporter cells
The experiment in a line: hGLP1R CreLuc assay in 0.5% and 100% plasma (HEK-293 CRE-luciferase reporter cells). It counts as cell-based. The settings on record: 100% human plasma, HEK-293 reporter cells, read-out: hGLP1R 100% hP.
Text: as §1, §2

The target of experiment [3] is T3, hGIPR (Homo sapiens, UniProt P48546).
T3 construct: expressed in transfected cells; host or cells: CHO CRE-luciferase reporter cells
T3 sequence (P48546 22-466): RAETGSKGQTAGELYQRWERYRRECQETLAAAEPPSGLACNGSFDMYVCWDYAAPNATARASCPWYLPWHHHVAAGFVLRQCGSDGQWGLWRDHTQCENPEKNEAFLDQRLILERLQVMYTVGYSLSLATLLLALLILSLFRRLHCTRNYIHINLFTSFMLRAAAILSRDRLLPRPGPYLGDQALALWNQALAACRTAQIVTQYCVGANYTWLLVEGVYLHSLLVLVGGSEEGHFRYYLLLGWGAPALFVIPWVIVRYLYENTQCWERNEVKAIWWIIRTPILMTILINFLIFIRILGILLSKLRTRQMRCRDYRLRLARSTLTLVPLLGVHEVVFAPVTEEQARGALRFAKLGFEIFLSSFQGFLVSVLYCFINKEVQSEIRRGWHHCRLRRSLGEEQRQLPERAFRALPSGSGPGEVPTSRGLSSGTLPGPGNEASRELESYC
The experiment in a line: hGIPR CreLuc assay in 0.5% and 100% plasma (CHO CRE-luciferase reporter cells). It counts as cell-based. The settings on record: 100% human plasma, read-out: hGIPR 100% hP.
Text: as §1, §2

Experiment [4] deals with human neuropeptide Y2 receptor (human, UniProt P49146 1-381). In words: cell-based or functional assay.
Experiment [5] concerns the target human GLP-1 receptor (human, UniProt P43220 24-463). In words: cell-based or functional assay.

Like-named read-outs stand apart in the source and are kept apart here.

On to `CC[C@H](C)[C@H](NC(=O)[C@H](Cc1ccccc1)NC(=O)[C@H](C)NC(=O)C(C)(C)NC(=O)[C@H](CCC(N)=O)NC(=O)[C@H](C)NC(=O)[C@H](CCC(N)=O)NC(=O)[C@H](CCCCN)NC(=O)[C@H](CCC(=O)O)NC(=O)[C@H](CC(C)C)NC(=O)[C@](C)(CC(C)C)NC(=O)[C@@H](NC(=O)[C@H](CO)NC(=O)[C@H](Cc1ccc(O)cc1)NC(=O)[C@H](CC(=O)O)NC(=O)[C@H](CO)NC(=O)[C@@H](NC(=O)[C@H](Cc1ccccc1)NC(=O)[C@@H](NC(=O)CNC(=O)[C@H](CCC(=O)O)NC(=O)C(C)(C)NC(=O)[C@@H](N)Cc1ccc(O)cc1)[C@@H](C)O)[C@@H](C)O)[C@@H](C)CC)C(=O)N[C@@H](CCCNC(=N)N)C(=O)N[C@@H](Cc1c[nH]cn1)C(=O)N[C@@H](CC(C)C)C(=O)N[C@H](C(=O)N[C@@H](CC(N)=O)C(=O)N[C@@H](CCCCNC(=O)[C@@H](N)CCCCNC(=O)CC[C@H](NC(=O)CC[C@H](NC(=O)CC[C@H](NC(=O)CC[C@H](NC(=O)CC[C@H](NC(=O)CC[C@H](NC(=O)CCCCCCCCCCCCCCCCCCC(=O)O)C(=O)O)C(=O)O)C(=O)O)C(=O)O)C(=O)O)C(=O)O)C(=O)NC(C)(C)C(=O)N[C@H](C(=O)N[C@@H](CCCNC(=N)N)C(=O)N[C@@H](CCC(N)=O)C(=O)N[C@@H](CCCNC(=N)N)C(=O)N[C@@H](Cc1ccc(O)cc1)C(N)=O)[C@@H](C)O)[C@@H](C)CC` [Compound 53, Y-Aib-E-G-T-F-T-S-D-Y-S-I-aMeL-L-E-K-Q-A-Q-Aib-A-F-I-R-H-L-I-N-K(1,3)-Aib-T-R-Q-R-Y-NH2.C20DA-gGlu-gGlu-gGlu-gGlu-gGlu-gGlu-eLys(1,2)], for which the EC50 in experiment [1] (0.5% human plasma, read-out: hNPY2R 0.5% hP) is 8.2 nM; in experiment [2], 1.1 nM.

Take `CC[C@H](C)[C@H](NC(=O)[C@H](CC(C)C)NC(=O)[C@H](Cc1c[nH]cn1)NC(=O)[C@H](CCCNC(=N)N)NC(=O)[C@@H](NC(=O)[C@H](Cc1ccccc1)NC(=O)[C@H](C)NC(=O)C(C)(C)NC(=O)[C@H](CCC(N)=O)NC(=O)[C@H](C)NC(=O)[C@H](CCC(N)=O)NC(=O)[C@H](CCCCN)NC(=O)[C@H](CCC(=O)O)NC(=O)[C@H](CC(C)C)NC(=O)C(C)(C)NC(=O)[C@@H](NC(=O)[C@H](CO)NC(=O)[C@H](Cc1ccc(O)cc1)NC(=O)[C@H](CC(=O)O)NC(=O)[C@H](CO)NC(=O)[C@@H](NC(=O)[C@H](Cc1ccccc1)NC(=O)[C@@H](NC(=O)CNC(=O)[C@H](CCC(=O)O)NC(=O)C(C)(C)NC(=O)[C@@H](N)Cc1ccc(O)cc1)[C@@H](C)O)[C@@H](C)O)[C@@H](C)CC)C(C)C)C(=O)N[C@@H](CC(N)=O)C(=O)N[C@@H](CCCCNC(=O)[C@@H](N)CCCCNC(=O)CC[C@H](NC(=O)CC[C@H](NC(=O)CC[C@H](NC(=O)CC[C@H](NC(=O)CC[C@H](NC(=O)CC[C@H](NC(=O)CCCCCCCCCCCCCCCCC(=O)O)C(=O)O)C(=O)O)C(=O)O)C(=O)O)C(=O)O)C(=O)O)C(=O)NC(C)(C)C(=O)N[C@H](C(=O)N[C@@H](CCCNC(=N)N)C(=O)N[C@@H](CCC(N)=O)C(=O)N[C@@H](CCCNC(=N)N)C(=O)N[C@@H](Cc1ccc(F)cc1)C(N)=O)[C@@H](C)O` [Compound 86, Y-Aib-E-G-T-F-T-S-D-Y-S-I-Aib-L-E-K-Q-A-Q-Aib-A-F-V-R-H-L-I-N-K(1,3)-Aib-T-R-Q-R-Phe4F-NH2.C18DA-gGlu-gGlu-gGlu-gGlu-gGlu-gGlu-eLys(1,2)]: the EC50 in experiment [2] was found to be 3.7 nM. Take `CC[C@H](C)[C@H](NC(=O)[C@H](CC(C)C)NC(=O)[C@H](Cc1c[nH]cn1)NC(=O)[C@H](CCCNC(=N)N)NC(=O)[C@@H](NC(=O)[C@H](Cc1ccccc1)NC(=O)[C@H](C)NC(=O)C(C)(C)NC(=O)[C@H](CCC(N)=O)NC(=O)[C@H](C)NC(=O)[C@H](CCC(N)=O)NC(=O)[C@H](CCC(=O)O)NC(=O)[C@H](CCC(=O)O)NC(=O)[C@H](CC(C)C)NC(=O)[C@](C)(CC(C)C)NC(=O)[C@@H](NC(=O)[C@H](CO)NC(=O)[C@H](Cc1ccc(O)cc1)NC(=O)[C@H](CC(=O)O)NC(=O)[C@H](CO)NC(=O)[C@@H](NC(=O)[C@H](Cc1ccccc1)NC(=O)[C@@H](NC(=O)CNC(=O)[C@H](CCC(=O)O)NC(=O)C(C)(C)NC(=O)[C@@H](N)Cc1ccc(O)cc1)[C@@H](C)O)[C@@H](C)O)[C@@H](C)CC)C(C)C)C(=O)N[C@@H](CC(N)=O)C(=O)N[C@@H](CCCCNC(=O)[C@@H](N)CCCCNC(=O)CC[C@H](NC(=O)CC[C@H](NC(=O)CC[C@H](NC(=O)CC[C@H](NC(=O)CC[C@H](NC(=O)CC[C@H](NC(=O)CCCCCCCCCCCCCCCCCCC(=O)O)C(=O)O)C(=O)O)C(=O)O)C(=O)O)C(=O)O)C(=O)O)C(=O)NC(C)(C)C(=O)N[C@H](C(=O)N[C@@H](CCCNC(=N)N)C(=O)N[C@@H](CCC(N)=O)C(=O)N[C@@H](CCCNC(=N)N)C(=O)N[C@@H](Cc1ccc(O)cc1)C(N)=O)[C@@H](C)O` [Compound 89, Y-Aib-E-G-T-F-T-S-D-Y-S-I-aMeL-L-E-E-Q-A-Q-Aib-A-F-V-R-H-L-I-N-K(1,3)-Aib-T-R-Q-R-Y-NH2.C20DA-gGlu-gGlu-gGlu-gGlu-gGlu-gGlu-eLys(1,2)]: in experiment [1] (100% human plasma, read-out: hNPY2R 100% hP), the EC50 was 160 nM. Turning to `CC[C@H](C)[C@H](NC(=O)[C@H](CC(C)C)NC(=O)[C@H](Cc1c[nH]cn1)NC(=O)[C@H](CCCNC(=N)N)NC(=O)[C@@H](NC(=O)[C@H](Cc1ccccc1)NC(=O)[C@H](C)NC(=O)C(C)(C)NC(=O)[C@H](CCC(=O)O)NC(=O)[C@H](C)NC(=O)[C@H](CCC(N)=O)NC(=O)[C@H](CCCCN)NC(=O)[C@H](CCC(=O)O)NC(=O)[C@H](CC(C)C)NC(=O)[C@](C)(CC(C)C)NC(=O)[C@@H](NC(=O)[C@H](CO)NC(=O)[C@H](Cc1ccc(O)cc1)NC(=O)[C@H](CC(=O)O)NC(=O)[C@H](CO)NC(=O)[C@@H](NC(=O)[C@H](Cc1ccccc1)NC(=O)[C@@H](NC(=O)CNC(=O)[C@H](CCC(=O)O)NC(=O)C(C)(C)NC(=O)[C@@H](N)Cc1ccc(O)cc1)[C@@H](C)O)[C@@H](C)O)[C@@H](C)CC)C(C)C)C(=O)N[C@@H](CC(N)=O)C(=O)N[C@@H](CCCCNC(=O)[C@@H](N)CCCCNC(=O)CC[C@H](NC(=O)CC[C@H](NC(=O)CC[C@H](NC(=O)CC[C@H](NC(=O)CC[C@H](NC(=O)CC[C@H](NC(=O)CCCCCCCCCCCCCCCCCCC(=O)O)C(=O)O)C(=O)O)C(=O)O)C(=O)O)C(=O)O)C(=O)O)C(=O)NC(C)(C)C(=O)N[C@H](C(=O)N[C@@H](CCCNC(=N)N)C(=O)N[C@@H](CCC(N)=O)C(=O)N[C@@H](CCCNC(=N)N)C(=O)N[C@@H](Cc1ccc(O)cc1)C(N)=O)[C@@H](C)O` [Compound 103, Y-Aib-E-G-T-F-T-S-D-Y-S-I-aMeL-L-E-K-Q-A-E-Aib-A-F-V-R-H-L-I-N-K(1,3)-Aib-T-R-Q-R-Y-NH2.C20DA-gGlu-gGlu-gGlu-gGlu-gGlu-gGlu-eLys(1,2)], in experiment [3], the EC50 turned out to be 3.6 nM.

B1: Compound 20 (peptide)
peptide: YXEGTFTSDLSIXLEKQAQXAFVRHLINKXTRQRY
modifications: Aib at 2, 13, 20, 30; Lys29 epsilon-amino acylated with C20DA-gGlu-gGlu-gGlu-gGlu-gGlu-gGlu-eLys; C-terminal amide
In the case of B1, the “EC50, CreLuc reporter, 0.5% hP” value in experiment [4] turned out to be 9.5 nM; in experiment [5], 3.9 nM. For the same molecule, the “EC50, CreLuc reporter, 100% hP” value in experiment [5] came out at 11 nM.
